Measurements reported in patent publication US20150045330A1, “PROPHYLACTIC AND THERAPEUTIC DRUG FOR AMYOTROPHIC LATERAL SCLEROSIS AND METHOD OF SCREENING THEREFOR” (priority 2012, published 2015).

Tested on: ALS-MNs
Test: Influence of arsenite addition on HB9::GFP-positive ALS-MNs
Details: 0.5 mM arsenite, 1 hr after addition, compared to non-addition group and normal MNs group; FIGS. 11D and E

Q: With arsenite as the substance, how does the “number of survival ALS-MNs” value read?
A: Its value is “significantly decreased”.
